The assay has as its system unresectable hepatocellular carcinoma (HCC). Briefly: REFLECT study, efficacy per independent review. It counts as in vivo, human. The settings on record: mRECIST. As for the experimental part:
The efficacy of LENVIMA was evaluated in a randomized, open-label, multicenter, international study (REFLECT; […]) conducted in patients with previously untreated unresectable hepatocellular carcinoma (HCC).

As for `CNC(=O)c1cc(Oc2ccc(NC(=O)Nc3ccc(Cl)c(C(F)(F)F)c3)cc2)ccn1` [Sorafenib], the Objective response rate turned out to be 12%.

The values are drawn from patent US12226409B2, “Treatment of hepatocellular carcinoma” (Eisai R&D Management Co., Ltd., priority 2017, dated 2025).
